# Experimental data reported in ChEMBL document CHEMBL5647694, “Novel orally bioavailable EZH1/2 dual inhibitors with greater antitumor efficacy than an EZH2 selective inhibitor” (Cancer Sci, 2017).
# Molecular target: T1, Histone-lysine N-methyltransferase EZH1 (Homo sapiens, UniProt Q92800)
# T1 sequence (Q92800 whole entry): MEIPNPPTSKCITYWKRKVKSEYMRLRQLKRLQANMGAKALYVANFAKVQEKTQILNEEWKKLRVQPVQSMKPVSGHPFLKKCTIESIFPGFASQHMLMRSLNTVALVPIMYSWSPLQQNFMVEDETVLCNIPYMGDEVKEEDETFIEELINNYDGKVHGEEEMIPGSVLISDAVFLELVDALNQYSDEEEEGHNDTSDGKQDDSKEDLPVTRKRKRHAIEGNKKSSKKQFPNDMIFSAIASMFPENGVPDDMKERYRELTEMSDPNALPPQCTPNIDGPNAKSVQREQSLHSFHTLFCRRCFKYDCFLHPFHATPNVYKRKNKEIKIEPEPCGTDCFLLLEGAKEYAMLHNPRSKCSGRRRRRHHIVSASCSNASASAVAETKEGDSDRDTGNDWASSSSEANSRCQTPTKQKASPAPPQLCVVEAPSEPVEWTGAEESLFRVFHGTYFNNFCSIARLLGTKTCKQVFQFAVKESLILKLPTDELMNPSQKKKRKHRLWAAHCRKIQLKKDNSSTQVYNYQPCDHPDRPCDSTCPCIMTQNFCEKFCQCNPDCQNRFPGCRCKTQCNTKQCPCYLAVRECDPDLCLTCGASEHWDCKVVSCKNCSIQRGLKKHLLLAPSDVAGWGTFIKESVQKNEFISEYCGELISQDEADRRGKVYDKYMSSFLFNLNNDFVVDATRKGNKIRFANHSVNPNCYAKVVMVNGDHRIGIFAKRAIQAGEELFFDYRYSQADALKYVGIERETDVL
compound,measurement,value
Cc1cc(C)c(CNC(=O)c2cc(Br)c3c(c2C)OC(C)(C2CCC(N(C)C)CC2)O3)c(=O)[nH]1 (stereo unspecified),IC50,16.3 nM
